The values below are quoted from earlier work in publication PMC2751796 (Pharmacology & therapeutics, 2009).

The structures appear in SMILES notation. Values joined by “and” are separate entries in the source; they are usually repeats but may differ in a detail not shown here. Identical values can stand only once.

For series [1], the system named is P-gp. Particulars: mouse, in vivo; cited from earlier work.
In series [2] the test system is P-gp. Particulars: mouse, in vivo; cited from earlier work. The source holds these as a separate data set.

Take `Cc1nc2n(c(=O)c1CCN1CCC(c3noc4cc(F)ccc34)CC1)CCCC2` [Risperidone]: in the series on P-gp [1], the “Fold change in brain uptake ratio in P-gp KO vs. control mice” value is 10.3 (10.5), AUC fold and 13.6 (14.1), Conc. fold; the “Fold change in brain uptake ratio in P-gp KO vs. control mice (value corrected for drug in vasculature)” value is 10.3 (10.5), AUC fold and 13.6 (14.1), Conc. fold. The “Fold change in brain uptake ratio in inhibitor-treated vs. control mice” value in the series with P-gp [2] was 1, AUC fold and 1.4, AUC fold.
